## Antibody variant affinities, Ab-95 light chain, assay 2

Data: MIT Lincoln Laboratory AlphaSeq set, Engelhart et al. 2022, doi:10.1038/s41597-022-01779-4, as distributed in FLAb.

Binding partner: SARS-CoV-2 spike HR2 peptide, sequence PDVDLGDISGINAS.

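The parent was found by panning a naive human phage display library on the peptide. Variants in AAYL52 differ from the parent at up to three CDR positions; double and triple changes were sampled at random. AlphaSeq pools MATa yeast showing the antibodies with MATalpha yeast showing the peptide. The frequency of each diploid, read from paired DNA barcodes, reflects how well the two displayed proteins bind. A regression on co-assayed BCL2-family reference pairs converts the normalised counts of each replicate to an apparent Kd. Each pool was mated in three replicate cultures.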

Parent scFv Ab-95: VH joined to VL by a (GGGGS)3 linker. Changes lie in the light chain CDRs alone.
VH: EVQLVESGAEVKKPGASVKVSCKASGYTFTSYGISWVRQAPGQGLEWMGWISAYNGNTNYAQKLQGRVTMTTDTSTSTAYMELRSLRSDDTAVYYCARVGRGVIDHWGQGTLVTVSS
VL: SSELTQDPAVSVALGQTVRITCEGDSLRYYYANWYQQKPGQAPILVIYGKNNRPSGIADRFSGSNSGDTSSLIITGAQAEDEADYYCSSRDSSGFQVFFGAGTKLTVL

Each variant is given by its three light chain CDRs, as the data file delimits them; those of the parent are EGDSLRYYYAN, GKNNRPS, SSRDSSGFQVF. This list gathers variants with a substitution at L27 (VL, numbered from residue 1). The read-out is the apparent dissociation constant on a log10 scale (nM): the lower, the stronger. A pair that was not seen in that replicate is written "ND"; this usually means weak binding, but a binder can also be missed.

The variant EGDSFRYYYAN / GKNNRPS / SSGDSDGFQVF showed ND, 4.42, ND. The variant EGDSQTYYYAN / CKNNRPS / SSRDSSGFQVF gave ND, ND, ND. The variant EGDSIRYYYAN / GKLNRPS / SSRDSSGFQVK showed ND, ND, ND. The variant EGDSYRYYYAN / GKNNHPS / SSRDSSGFQVF showed ND, ND, ND. The variant EGDSMRRYYAN / GKNNRDS / SSRDSSGFQVF showed ND, ND, ND.

The variant EGDSYRYYYAN / GKNNFPS / SSRDCSGFQVF gave 3.57, 3.68, ND. For EGDSHRYYYAN / EKNNRPS / SSRDSSGFQPF, the assay gave 4.05, ND, ND. With EGDSNRYYYAN / GKNNRIS / SSRISSGFQVF the result was 3.96, ND, ND. For HGDSSRYYYAN / DKNNRPS / SSRDSSGFQVF, the assay gave ND, ND, 3.35. The variant EGDSKRYYYAN / GKNNRPS / SSRDSSGFQLT gave ND, ND, ND.

With EGDSERYYYAN / GKNNEPS / SSRDSSGFQVF the result was ND, ND, ND. The variant EGDSYRYYYAN / GKNNRPS / SSRDSVGFQVF gave ND, 4.00, ND. For EGDWFRIYYAN / GKNNRPS / SSRDSSGFQVF, the assay gave 4.63, ND, ND. For EQDSRRYYRAN / GKNNRPS / SSRDSSGFQVF, the assay gave 3.96, ND, ND. For GGDSSRYYYAN / GKMNRPS / SSRDSSGFQVF, the assay gave 4.24, ND, ND.

With EGDSIPYYYQN / GKNNRPS / SSRDSSGFQVF the result was 4.16, 3.76, 3.71. The variant CGDSRRYYYAN / GKNNNPS / SSRDSSGFQVF showed 3.52, ND, ND. The variant EGDSQRYYYAN / GKNNRPS / SSRDSSGFWVF gave 3.07, 3.58, 3.49. The variant EGDSMRYYYAN / GKNWRPS / SSRDSSGFQVF gave 3.55, 5.12, ND. The variant EEDSVRYYYAN / GKNNRPS / SERDSSGFQVF gave 5.98, 6.03, ND.

For EGDRDRYYYAN / GKNNRPS / SSRDSSGFQVF, the assay gave ND, 3.21, 3.51. For EGDSARYYYAN / GKNNRPS / CSRDNSGFQVF, the assay gave ND, 4.97, 3.88. For EGDSERYYCAN / GKNNRPS / SSVDSSGFQVF, the assay gave 3.96, 3.81, 3.09. The variant EGDSIRYYYNN / GKNNRPS / SSRDSSRFQVF showed 3.70, ND, 2.92. The variant EGDSGRYYYAK / GKNNRPW / SSRDSSGFQVF gave 5.87, 3.37, ND.

The variant EGDSTRYYYAN / GVNNRPS / SSDDSSGFQVF gave ND, ND, 3.76. With EGTSIRYYYAN / GKNNRPS / SSRDSSGFQKF the result was 3.58, 3.93, ND. The variant FGDSRRQYYAN / GKNNRPS / SSRDSSGFQVF gave 4.91, ND, ND. The variant EGDSKRYYYWN / GKNNRPS / SSRDSFGFQVF showed ND, ND, ND. The variant EGDSGRYYYAN / GKNNRPS / SKRDSSGFQVG gave 3.00, 4.58, 3.86.

The variant EGDSPRYYYAN / GNNNRPS / WSRDSSGFQVF gave ND, ND, ND. For EGDSGRYAYAN / GKNNRPS / SSWDSSGFQVF, the assay gave ND, ND, ND. For EGDGNRYYYAN / GKNNRPS / SSRDSSGFPVF, the assay gave 3.31, 3.09, 3.29. For EGSSQRYYYAN / GKNNRPS / SSRDQSGFQVF, the assay gave 1.78, 2.02, 1.09. The variant SGDSTRYYWAN / GKNNRPS / SSRDSSGFQVF showed 3.24, 3.34, 2.36.

The variant EIDSMRYYYAH / GKNNRPS / SSRDSSGFQVF showed 2.70, 3.03, 2.76. With EGESRRYYYAN / GKRNRPS / SSRDSSGFQVF the result was ND, ND, ND. For EGDSCRYYYAN / GKNNRPV / SSRDQSGFQVF, the assay gave ND, ND, ND. For EGDIERYYYAN / GKNNRPS / SSRDSSGFQVF, the assay gave 3.58, ND, 3.10. The variant VGDSARYYYAN / GKNNRPS / SSRDSSGFQPF gave 3.99, ND, ND.

For EGDSARYYYAN / GKNNRPS / SSRDSVGFQVF, the assay gave 2.25, 3.62, 2.44. For EGDSDRYYYAN / GRNNRPS / SSRDSSGFMVF, the assay gave 3.12, ND, 4.06. For WGDSWQYYYAN / GKNNRPS / SSRDSSGFQVF, the assay gave ND, ND, ND. For EGDSWRCYYAN / GKNNRPS / SSADSSGFQVF, the assay gave 3.60, ND, ND. The variant EGDSMRYYYAN / GKNNRPS / SSRNSSGFQVF showed 2.42, 2.79, 2.50.

The variant EGDSKRYYGAN / GKNNRPS / SSIDSSGFQVF gave 2.45, 4.87, 3.91. For EGDSMRYIYAN / GKINRPS / SSRDSSGFQVF, the assay gave 4.06, ND, 2.75. With EGDSKGYYYAN / GKNNRPS / SSRDSSGFQDF the result was ND, 4.44, ND.

For reference, 8 entries of the list once more:

EGDSDRYYYAN / GRNNRPS / SSRDSSGFMVF: 3.12, ND, 4.06.
EGDSKGYYYAN / GKNNRPS / SSRDSSGFQDF: ND, 4.44, ND.
VGDSARYYYAN / GKNNRPS / SSRDSSGFQPF: 3.99, ND, ND.
EGDSERYYCAN / GKNNRPS / SSVDSSGFQVF: 3.96, 3.81, 3.09.
EQDSRRYYRAN / GKNNRPS / SSRDSSGFQVF: 3.96, ND, ND.
EGDSNRYYYAN / GKNNRIS / SSRISSGFQVF: 3.96, ND, ND.
EGDSMRYYYAN / GKNWRPS / SSRDSSGFQVF: 3.55, 5.12, ND.
EGDSGRYAYAN / GKNNRPS / SSWDSSGFQVF: ND, ND, ND.

Parent in this assay: reference entry 2.31, copy in this library 2.25. Nonspecific signal, from three strains lacking the peptide, appeared in 28% of pairings of library AAYL52, centred on 3.91 (5% of these signals below 2.90); values are not corrected for it.